Tests used:
Cardmine = test: Postemergence weed clearing activity, pot-culture method; conditions: visual 0-100% grading 25 days after application; for Postemergence weed clearing activity, Card-mine: 10 g/mu, foliage spray; for Weed clearing activity, Cardmine, Postemergence: pot-culture
Chenopodium serotinum = test: as above; conditions: 10 g/mu; foliage spray; visual 0-100% grading 25 days after application
Cassia obtusifolia = test: as above; conditions: visual 0-100% grading 25 days after application; for Postemergence weed clearing activity, Cassia obtusifolia: 10 g/mu, foliage spray; for Weed clearing activity, Cassia obtusifolia, Postemergence: pot-culture
rape [1] = test: Weed clearing activity test with culture dish method (ex-vivo plate method); type: in vivo; conditions: positive = inhibition; for weed clearing activity, rape Root (Effect): root length after 5 days; for weed clearing activity, rape Stem (Effect): stem length after 5 days
cockspur grass = test: as above; type: in vivo; conditions: positive = inhibition; for weed clearing activity, cockspur grass Root (Effect): root length after 5 days; for weed clearing activity, cockspur grass Stem (Effect): stem length after 5 days
Abutilon theophrasti = test: Postemergence weed clearing activity, pot-culture method; type: in vivo; conditions: visual 0-100% grading 25 days after application
Amaranthus retroflexus = test: as above; type: in vivo; conditions: visual 0-100% grading 25 days after application
Capsella bursa-pastoris = test: as above; type: in vivo; conditions: visual 0-100% grading 25 days after application
Eclipta prostrata = test: as above; type: in vivo; conditions: visual 0-100% grading 25 days after application
rape [2] = test: as above; conditions: 10 g/mu; foliage spray; visual 0-100% grading 25 days after application

O=C(COc1ccccc1F)OCC12COP(=O)(OC1)OC2
Postemergence weed clearing activity, Card-mine (Cardmine): 80%
Weed clearing activity, Cardmine, Postemergence (Cardmine; dosage 5 g/mu): 80 (Severely effecting growth, leading to death in a part, having good activity)
Weed clearing activity, Cardmine, Postemergence (Cardmine; dosage […]): 70%
Postemergence weed clearing activity, Chenopodium serotinum (Chenopodium serotinum): 100%
Postemergence weed clearing activity, Cassia obtusifolia (Cassia obtusifolia): 40%
Weed clearing activity, Cassia obtusifolia, Postemergence (Cassia obtusifolia; dosage 5 g/mu): 0 (Being same as the control, inactive)
Weed clearing activity, Cassia obtusifolia, Postemergence (Cassia obtusifolia; dosage […]): 0 (Being same as the control, inactive)
weed clearing activity, rape Root (Effect) (rape [1]; 10 μg/g): 53%
weed clearing activity, rape Stem (Effect) (rape [1]; 10 μg/g, negative = promotion): 24%
weed clearing activity, rape Root (Effect) (rape [1]; 100 μg/g): 92%
weed clearing activity, rape Stem (Effect) (rape [1]; 100 μg/g): 49%
weed clearing activity, cockspur grass Root (Effect) (cockspur grass; 10 μg/g): 69%
weed clearing activity, cockspur grass Stem (Effect) (cockspur grass; 10 μg/g): 31%
weed clearing activity, cockspur grass Root (Effect) (cockspur grass; 100 μg/g): 80%
weed clearing activity, cockspur grass Stem (Effect) (cockspur grass; 100 μg/g): 55%
Weed clearing activity, Abutilon theophrasti, Postemergence (Abutilon theophrasti; dosage 5 g/mu): 30%
Weed clearing activity, Abutilon theophrasti, Postemergence (Abutilon theophrasti; dosage […]): 30%
weed clearing activity, Amaranthus retroflexus Postemergence (Amaranthus retroflexus; 10 g/mu, foliage spray): 100%
weed clearing activity, Amaranthus retroflexus Postemergence (Amaranthus retroflexus; dosage 5 g/mu, pot-culture): 70%
weed clearing activity, Amaranthus retroflexus Postemergence (Amaranthus retroflexus; dosage […], pot-culture): 70%
weed clearing activity, Capsella bursa-pastoris Postemergence (Capsella bursa-pastoris; 10 g/mu, foliage spray): 100%
weed clearing activity, Capsella bursa-pastoris Postemergence (Capsella bursa-pastoris; dosage 5 g/mu, pot-culture): 90 (Severely effecting growth, leading to death in majority, a few plants remaining, having very good activity)
weed clearing activity, Capsella bursa-pastoris Postemergence (Capsella bursa-pastoris; dosage […], pot-culture): 90 (Severely effecting growth, leading to death in majority, a few plants remaining, having very good activity)
Weed clearing activity, Eclipta prostrata, Postemergence (Eclipta prostrata; dosage 5 g/mu): 50%
Weed clearing activity, Eclipta prostrata, Postemergence (Eclipta prostrata; dosage […]): 0 (Being same as the control, inactive)

O=C(COc1ccccc1Cl)OCC12COP(=O)(OC1)OC2
Postemergence weed clearing activity, Chenopodium serotinum (Chenopodium serotinum): 80%
weed clearing activity, rape Root (Effect) (rape [1]; 10 μg/g): 95%
weed clearing activity, rape Stem (Effect) (rape [1]; 10 μg/g, negative = promotion): 90%
weed clearing activity, rape Root (Effect) (rape [1]; 100 μg/g): 99%
weed clearing activity, rape Stem (Effect) (rape [1]; 100 μg/g): 97%
weed clearing activity, cockspur grass Root (Effect) (cockspur grass; 10 μg/g): 91%
weed clearing activity, cockspur grass Stem (Effect) (cockspur grass; 10 μg/g): 48%
weed clearing activity, cockspur grass Root (Effect) (cockspur grass; 100 μg/g): 97%
weed clearing activity, cockspur grass Stem (Effect) (cockspur grass; 100 μg/g): 55%
weed clearing activity, Amaranthus retroflexus Postemergence (Amaranthus retroflexus; 10 g/mu, foliage spray): 70%
weed clearing activity, Capsella bursa-pastoris Postemergence (Capsella bursa-pastoris; 10 g/mu, foliage spray): 90%

Cc1cc(Cl)ccc1OCC(=O)OCC12COP(=O)(OC1)OC2
Postemergence weed clearing activity, Chenopodium serotinum (Chenopodium serotinum): 70%
weed clearing activity, rape Root (Effect) (rape [1]; 10 μg/g): 97%
weed clearing activity, rape Stem (Effect) (rape [1]; 10 μg/g, negative = promotion): 92%
weed clearing activity, rape Root (Effect) (rape [1]; 100 μg/g): 100%
weed clearing activity, rape Stem (Effect) (rape [1]; 100 μg/g): 99%
weed clearing activity, cockspur grass Root (Effect) (cockspur grass; 10 μg/g): 97%
weed clearing activity, cockspur grass Stem (Effect) (cockspur grass; 10 μg/g): 50%
weed clearing activity, cockspur grass Root (Effect) (cockspur grass; 100 μg/g): 97%
weed clearing activity, cockspur grass Stem (Effect) (cockspur grass; 100 μg/g): 65%
weed clearing activity, Amaranthus retroflexus Postemergence (Amaranthus retroflexus; 10 g/mu, foliage spray): 0%
weed clearing activity, Capsella bursa-pastoris Postemergence (Capsella bursa-pastoris; 10 g/mu, foliage spray): 0%

Cc1ccc(OCC(=O)OCC23COP(=O)(OC2)OC3)cc1
Postemergence weed clearing activity, Card-mine (Cardmine): 70%
Weed clearing activity, Cardmine, Postemergence (Cardmine; dosage 5 g/mu): 70%
Weed clearing activity, Cardmine, Postemergence (Cardmine; dosage […]): 50%
Postemergence weed clearing activity, Chenopodium serotinum (Chenopodium serotinum): 80%
Postemergence weed clearing activity, Cassia obtusifolia (Cassia obtusifolia): 70%
Weed clearing activity, Cassia obtusifolia, Postemergence (Cassia obtusifolia; dosage 5 g/mu): 70%
Weed clearing activity, Cassia obtusifolia, Postemergence (Cassia obtusifolia; dosage […]): 60%
weed clearing activity, rape Root (Effect) (rape [1]; 10 μg/g): 79%
weed clearing activity, rape Stem (Effect) (rape [1]; 10 μg/g, negative = promotion): 34%
weed clearing activity, rape Root (Effect) (rape [1]; 100 μg/g): 97%
weed clearing activity, rape Stem (Effect) (rape [1]; 100 μg/g): 88%
weed clearing activity, cockspur grass Root (Effect) (cockspur grass; 10 μg/g): 51%
weed clearing activity, cockspur grass Stem (Effect) (cockspur grass; 10 μg/g): 4%
weed clearing activity, cockspur grass Root (Effect) (cockspur grass; 100 μg/g): 94%
weed clearing activity, cockspur grass Stem (Effect) (cockspur grass; 100 μg/g): 22%
Weed clearing activity, Abutilon theophrasti, Postemergence (Abutilon theophrasti; dosage 5 g/mu): 30%
Weed clearing activity, Abutilon theophrasti, Postemergence (Abutilon theophrasti; dosage […]): 30%
weed clearing activity, Amaranthus retroflexus Postemergence (Amaranthus retroflexus; 10 g/mu, foliage spray): 80%
weed clearing activity, Amaranthus retroflexus Postemergence (Amaranthus retroflexus; dosage 5 g/mu, pot-culture): 70%
weed clearing activity, Amaranthus retroflexus Postemergence (Amaranthus retroflexus; dosage […], pot-culture): 60%
weed clearing activity, Capsella bursa-pastoris Postemergence (Capsella bursa-pastoris; 10 g/mu, foliage spray): 100%
weed clearing activity, Capsella bursa-pastoris Postemergence (Capsella bursa-pastoris; dosage 5 g/mu, pot-culture): 85%
weed clearing activity, Capsella bursa-pastoris Postemergence (Capsella bursa-pastoris; dosage […], pot-culture): 70%
Weed clearing activity, Eclipta prostrata, Postemergence (Eclipta prostrata; dosage 5 g/mu): 65%
Weed clearing activity, Eclipta prostrata, Postemergence (Eclipta prostrata; dosage […]): 60%

CC(C)(C)c1ccc(OCC(=O)OCC23COP(=O)(OC2)OC3)cc1
Postemergence weed clearing activity, Rape (rape [2]): 79%
weed clearing activity, rape Root (Effect) (rape [1]; 10 μg/g): 9%
weed clearing activity, rape Stem (Effect) (rape [1]; 10 μg/g, negative = promotion): 5%
weed clearing activity, rape Root (Effect) (rape [1]; 100 μg/g): 79%
weed clearing activity, rape Stem (Effect) (rape [1]; 100 μg/g): 49%
weed clearing activity, cockspur grass Root (Effect) (cockspur grass; 10 μg/g): 67%
weed clearing activity, cockspur grass Stem (Effect) (cockspur grass; 10 μg/g): 25%
weed clearing activity, cockspur grass Root (Effect) (cockspur grass; 100 μg/g): 72%
weed clearing activity, cockspur grass Stem (Effect) (cockspur grass; 100 μg/g): 43%
weed clearing activity, Amaranthus retroflexus Postemergence (Amaranthus retroflexus; 10 g/mu, foliage spray): 85%

— patent publication US9029542B2 (priority 2011, dated 2015)
